# GRP78 ERSR act = ER stress response induction in glioma; actives 0.02% (n = 420,000); Potency, µM, inactives show at the top dose activation, actives largely listed as activators; U87-MG GRP78 promoter luciferase reporter, 16 h; further: potency means the concentration at half of the fitted maximal effect; series mostly up to about 76 µM; % of control where 0% means no effect; nearly all actives have a fitted effect of over 35% in size
#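 Stably transfected U87-MG glioma cells carrying a GRP78-based luciferase sensor; 16 h compound incubation. Luminescence end-point read 10 min after Bright-Glo addition at room temperature.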
# miR-21 FLuc = miR-21 reporter, rising signal | AID 2288 | HeLa miR-21 FLuc reporter, luciferase, 48 h | 340,000 tested, under 10 active | Potency, µM (titrated, usually from 38.3 µM), for the others: at the top dose reporter change, positive = more light; active = well fitted rising curve with a large enough effect; inconclusive = small, poorly fitted or top-dose-only effect; inactive = no such curve, though single readings can be large or run the other way;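 also: % of control where 0% means no effect; miR-21 action dims this reporter so a rising signal means less miR-21 action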
#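 Compounds were titrated across several concentrations (up to approximately 40 uM) and incubated 48 hours with HeLa miR-21-FLuc reporter cells (miR-21 target sequence downstream of FLuc, endogenous miR-21). Readout was firefly luciferase luminescence after lytic detection reagent.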
# Nrf2 ARE act = activates Nrf2 signaling. AREc32 ARE-luciferase reporter (MCF7-derived line), luminescence, 24 h. Potency, µM (highest dose often 46.1 µM), without a hit: at the top dose activation, hits mostly activators. actives 0.31% (n = 410,000). AID 624171; further: potency means the concentration at half of the fitted maximal effect; % of control where 0% means no effect; nearly all actives have a fitted effect of over 65% in size
#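 Cells of the AREc32 ARE-luciferase line are plated in OPTI-MEM containing 5% FBS and left overnight at 37 deg C. Compounds are pinned in, incubation continues 24 hr, and firefly luciferase signal is then measured.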
# A549 tox = kills or reduces viability of A549 cells in Nrf2 counter-screen. A549 ARE-Fluc cells, CellTiter-Fluor viability, 18-24 h. Potency, µM (highest dose often 46 µM), for the others: at the highest dose activity change, negative = cytotoxicity, hits mostly inhibitors. AID 504648. actives 0.16% (n = 390,000); further: potency means the concentration at half of the fitted maximal effect; on the % scale 0 is the no-effect control and ±100 the full control effect
#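 A549 ARE-Fluc cells in 5% FBS OPTI-MEM, 5000 cells/well, rested 2 h then exposed to compounds in concentration-response for 18-24 h at 37 °C. Viability by CellTiter-Fluor fluorescence (Ex 405/Em 525) after 30 min; luciferase luminescence (BugLite, 15 min, RT) read afterwards.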
# Nrf2 inh = blocks Nrf2 signaling | A549 ARE-Fluc reporter, luciferase luminescence, 18-24 h | Potency, µM (titrated, usually from 46 µM), inactives show at the top dose activity change, negative = inhibition, usual class: inhibitors | actives 2.1% (n = 360,000); further: potency means the concentration at half of the fitted maximal effect; on the % scale 0 is the no-effect control and ±100 the full control effect; nearly all actives have a fitted effect of over 60% in size
#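 Two sequential reads on A549 ARE_Fluc cells exposed to compound for 18-24 h: a CellTiter-Fluor fluorescence read for viability, then a luciferase luminescence read for Nrf2/ARE activity.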
# PTAP TSG101 blk = blocks PTAP/TSG101 interaction to inhibit HIV-1 budding | Q99816 | Fluorescence polarization, FITC-PTAP peptide / Tsg101 binding | Potency, µM (series often up to 115 µM), without a hit: top-dose activity change, negative = inhibition, most hits filed as inhibitors | 340,000 tested, under 10 active; active means well fitted inhibition curve with a large enough effect in the main read-out, with a control signal flat, not every such curve was filed as active; inconclusive means small, poorly fitted or top-dose-only effect, or effect the other way, or a change in a side signal; inactive means no such curve, though single readings can be large or run the other way; further: potency means the concentration at half of the fitted maximal effect; % of control where 0% means no effect
#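 Tsg101 binding domain (10 uM final) was mixed with compound and a FITC-labeled PTAP peptide (50 nM final) in HEPES pH 7.5 buffer with NaCl, Tween 20, EDTA and TCEP; fluorescence polarization was read after 20 min at r.t.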
# Active calls of the source: *; ? = inconclusive; / = no result given. In the library only some 2.1% were active in any assay of this set; here they are far more common. Unless noted, the call rests on the fitted dose curve; in most records, active means well fitted curve in the direction sought with a large enough effect; inconclusive means small, poorly fitted or top-dose-only effect, or another doubt; inactive means no such curve, though single readings can be large; an effect the other way counts as inactive or inconclusive.
item	molecule	GRP78 ERSR act	miR-21 FLuc	Nrf2 ARE act	A549 tox	Nrf2 inh	PTAP TSG101 blk
1	Cc1[nH]c2ccccc2c1/C=C/c1cc[n+](C)cc1	-3%	20%	-1%	8.2µM*	2.1µM*	?
2	Cc1[nH]c2ccccc2c1/C=C/c1c(C)[nH]c2ccccc12	-4%	/	/	/	/	/
3	CC[C@H](C)[C@H](NC(=O)[C@H](CO)NC(=O)[C@H](CC(N)=O)NC(=O)[C@H](CC(C)C)NC(=O)[C@H](Cc1ccc(O)cc1)NC(=O)[C@H](CCCCN)NC(=O)[C@H](CCCCN)NC(=O)[C@@H](NC(=O)[C@H](C)NC(=O)[C@H](CCSC)NC(=O)[C@H](CCC(N)=O)NC(=O)[C@H](CCCCN)NC(=O)[C@H](CCCNC(=N)N)NC(=O)[C@H](CC(C)C)NC(=O)[C@H](CCCNC(=N)N)NC(=O)[C@@H](NC(=O)[C@H](Cc1ccc(O)cc1)NC(=O)[C@H](CC(N)=O)NC(=O)[C@H](CC(=O)O)NC(=O)[C@@H](NC(=O)[C@H](Cc1ccccc1)NC(=O)[C@@H](NC(=O)[C@H](C)NC(=O)[C@H](CC(=O)O)NC(=O)[C@H](CO)NC(=O)[C@@H](N)Cc1c[nH]cn1)C(C)C)[C@@H](C)O)[C@@H](C)O)C(C)C)C(=O)N[C@@H](CC(C)C)C(=O)N[C@@H](CC(N)=O)C(=O)O	-4%	/	/	/	/	/
4	COc1ccc(CN2CCOc3c(cc(-c4cccc(OC)n4)cc3OC)C2)c(O)c1	-7%	/	/	/	/	/
5	Cc1ccc(NC(=O)Cn2c(=O)n(-c3ccccc3)c(=O)c3ccc(C(=O)NCc4ccc5c(c4)OCO5)cc32)c(C)c1	-3%	-7%	0%	-10%	7.3µM*	/
6	O=C(Cn1c(=O)n(-c2ccccc2)c(=O)c2ccc(C(=O)NCc3ccc4c(c3)OCO4)cc21)Nc1ccc(Br)cc1	-3%	-9%	0%	-3%	-8%	/
7	COc1ccc(/C=c2\[nH]c(=O)/c(=C/c3ccc(OC)cc3)[nH]c2=O)cc1	-3%	/	/	/	/	/
8	COc1ccc(CN2CCOc3ccc(C(O)c4cccnc4)cc3C2)cc1O (configuration not stated)	-5%	/	/	/	/	/
9	CC1Oc2ccccc2OC1C(=O)Nc1ccccn1 (configuration not stated)	-5%	-2%	7.1µM*	10%	11%	-1%
10	O=C(Nc1ccccn1)C1COc2ccccc2O1 (configuration not stated)	6%	-48%	9%	-3%	?	-5%
11	O=[S+]([O-])(c1ccc(-c2ccccc2)cc1)N1CCN([S+](=O)([O-])c2ccc3c(c2)OCCO3)CC1	/	/	/	10%	21%	/
12	CN(C(=O)Cc1c[nH]c2ccccc12)C(C(=O)Nc1ccc2c(c1)OCO2)c1ccccc1 (configuration not stated)	0%	0%	4%	?	23µM*	6%
13	CN(Cc1cccs1)c1ncnc2ccc(-c3ccc4cn(C)nc4c3)cc12	/	/	/	1%	-6%	/
14	Cn1cc(/C=C/c2ccc3ccccc3n2)c2ccccc21	4%	/	/	/	/	/
15	COc1ccc(NC(=O)c2oc3ccccc3c2NC(=O)c2cc3ccccc3o2)cc1	0%	-8%	1%	3%	4%	/
16	COc1ccc(NC(=O)c2oc3ccccc3c2NC(=O)c2ccco2)cc1	0%	0%	0%	-7%	1.6µM*	-2%
17	Cc1ccc(-c2noc(CCC(=O)NCC3CCCO3)n2)cc1 (configuration not stated)	-1%	-2%	0%	-19%	?	-2%
18	COc1ccc(-c2noc(CCC(=O)Nc3cccnc3)n2)cc1	-4%	-3%	-1%	-2%	5%	1%
19	COc1ccc(-c2noc(CCCC(=O)Nc3ccc(C(N)=O)cc3)n2)cc1	-8%	?	-3%	-2%	/	-6%
20	CC(C)(C)c1ccc(-c2noc(CCC(=O)Nc3cccnc3)n2)cc1	-9%	?	-2%	-2%	0.26µM*	-4%
21	COc1ccc(-c2noc(CCC(=O)Nc3ccc(C(F)(F)F)cc3)n2)cc1	7%	11%	0%	-6%	18µM*	/
22	CC(C)(C)c1ccc(-c2noc(CCC(=O)NCC3CCCO3)n2)cc1 (configuration not stated)	-11%	?	-2%	-4%	0.58µM*	-12%
23	O=C1CCc2cc(S(=O)(=O)Nc3ccc(F)c(Cl)c3)ccc2N1	/	/	/	8%	?	/
24	CCC1(C2CCN(C(=O)c3ccc(C)cc3C)CC2)NC(=O)N(CCc2scnc2C)C1=O (configuration not stated)	-3%	/	/	/	/	/
25	Cn1c(CCN2CCN(c3ccccn3)CC2)nc2cc(NC(=O)COc3ccccc3)ccc21	-2%	22%	6%	-4%	23µM*	1%
26	Cn1nc([N+](=O)[O-])c(C(C#N)c2ccccn2)c(Cl)c1=O (configuration not stated)	-13%	15%	?	?	12µM*	0%
27	N#CC(c1ccccn1)c1ncc(C(F)(F)F)cc1Cl (configuration not stated)	0%	-4%	5%	8%	12%	-5%
28	CCOCCCNC(=O)/C(C#N)=C/c1ccc(-c2ccc(S(=O)(=O)N3CCOCC3)cc2)o1	-4%	27%	0%	-3%	0%	-1%
29	CCOCCCNC(=O)/C(C#N)=C/c1ccc([N+](=O)[O-])o1	-17%	10%	?	?	26µM*	-2%
30	Cc1cc(C)n2ncc(C(=O)Nc3ccccc3)c2n1	/	/	/	1%	20%	/

# Look-ups from the results shown.
# Nrf2 inh with CN(Cc1cccs1)c1ncnc2ccc(-c3ccc4cn(C)nc4c3)cc12 reads -6%
# GRP78 ERSR act with COc1ccc(-c2noc(CCCC(=O)Nc3ccc(C(N)=O)cc3)n2)cc1 reads -8%
# GRP78 ERSR act with COc1ccc(CN2CCOc3ccc(C(O)c4cccnc4)cc3C2)cc1O (configuration not stated) reads -5%

# Other records follow.
item	molecule	GRP78 ERSR act	miR-21 FLuc	Nrf2 ARE act	A549 tox	Nrf2 inh	PTAP TSG101 blk
31	Cc1ncc2c(c1CNC(=O)c1ccc3c(c1)OCO3)CCN(C(=O)c1scc3c1CCCC3)C2	-5%	/	/	/	/	/
32	COc1ccccc1C(=O)N1CCN(c2nc3cc(C)c(C)cc3cc2C#N)CC1	-8%	14%	0%	-26%	23µM*	-11%
33	COc1ccccc1C(=O)N1CCN(c2nc3cc(C)cc(C)c3cc2C#N)CC1	-1%	/	-1%	/	/	/
34	O=C(CCN=C1NS(=O)(=O)c2ccccc21)Nc1ccc(F)cc1Cl	-4%	/	5%	10%	9.2µM*	0%
35	CC(C(=O)Nc1ccccc1)c1ccc(-c2ccccc2)c(F)c1 (configuration not stated)	-4%	18%	0%	-30%	10µM*	-4%
36	CC(C(=O)O)c1ccc(-c2ccccc2)c(F)c1 (configuration not stated)	1%	1%	-1%	-6%	-11%	-1%

# Marked active in Nrf2 ARE act (from the list above):
no.	Compound	GRP78 ERSR act	miR-21 FLuc	Nrf2 ARE act	PTAP TSG101 blk
9	CC1Oc2ccccc2OC1C(=O)Nc1ccccn1 (configuration not stated)	-5%	-2%	7.1µM*	-1%

# Along the list, quoted from above:
# Compounds 20 to 23 in Nrf2 inh: 0.26µM*, 18µM*, 0.58µM*, ?
# Compounds 20 to 23 in A549 tox: -2%, -6%, -4%, 8%

# Screens deposited in PubChem by National Center for Advancing Translational Sciences (NCATS).
